Reference: patent publication US11192890B2, “FGFR kinase inhibitors and pharmaceutical uses” (AUCKLAND UNISERVICES LIMITED, priority 2017, dated 2021)

Tested on: phosphorylation of FGFR2 and ERK1/2 in SUM52 cells
Details: for concentration giving complete blockade of FGFR2 and ERK1/2 activation (FGF signalling fully silenced): FGF-stimulated SUM52 cells, Western blot

## CNc1ncc2c(n1)N([C@H]1CCN(C(=O)/C=C/CN(C)C)C1)C(=O)N(c1c(Cl)c(OC)cc(OC)c1Cl)C2 [Compound 103, (S,E)-3-(2,6-dichloro-3,5-dimethoxyphenyl)-1-(1-(4-(dimethylamino)but-2-enoyl)pyrrolidin-3-yl)-7-(methylamino)-3,4-dihydropyrimido[4,5-d]pyrimidin-2(1H)-one]
  concentration giving complete blockade of FGFR2 and ERK1/2 activation (FGF signalling fully silenced): 30 nM

## COc1cc(OC)c(Cl)c(N2Cc3cnc(Nc4ccccc4)nc3N([C@H]3CCN(C(=O)/C=C/CN(C)C)C3)C2=O)c1Cl [Compound 106, (S,E)-3-(2,6-dichloro-3,5-dimethoxyphenyl)-1-(1-(4-(dimethylamino)but-2-enoyl)pyrrolidin-3-yl)-7-(phenylamino)-3,4-dihydropyrimido[4,5-d]pyrimidin-2(1H)-one]
  concentration giving complete blockade of FGFR2 and ERK1/2 activation (FGF signalling fully silenced): 30 nM

## COc1cc(OC)c(Cl)c(N2Cc3cnc(Nc4ccccc4)nc3N(C3CCN(C(=O)/C=C/C[N+](C)(C)Cc4c([N+](=O)[O-])ncn4C)CC3)C2=O)c1Cl.[Br-] [Compound 204, (E)-4-(4-(3-(2,6-dichloro-3,5-dimethoxyphenyl)-2-oxo-7-(phenylamino)-3,4-dihydropyrimido[4,5-d]pyrimidin-1(2H)-yl)piperidin-1-yl)-N,N-dimethyl-N-((1-methyl-4-nitro-1H-imidazol-5-yl)methyl)-4-oxobut-2-en-1-aminium bromide]
  concentration giving complete blockade of FGFR2 and ERK1/2 activation (FGF signalling fully silenced): 3000 nM
SUM52 cells
  fold less potent than FGFR inhibitor compound 112 at inhibiting the phosphorylation of FGFR2 and ERK1/2: approximately 100 fold
